Values of other authors as cited in US9052308B2 (The General Hospital Corporation, priority 2011, dated 2015).

Settings: circulation

For vitamin D, the “fraction of circulating vitamin bound to albumin” value is given as 10-15% and the “fraction of circulating vitamin bound to vitamin D binding protein” value is given as 85-90%.
